Measured values reported in patent US20090220562A1, “Osteogenic and anti-adipogenic oxysterols” (priority 2005, published 2009).

Test system: M2-10B4 marrow stromal cells
Experiment: Alkaline phosphatase (ALP) activity assay on whole cell extracts of M2-10B4 marrow stromal cells
Assay type: cell-based, mouse
Details: pretreatment; cyclopamine 1-10 μM, DKK-1 1 μg/ml
Experimental: Cells: M2-10B4 mouse marrow stromal cell line obtained from American Type Culture Collection (ATCC, Rockville, Md., U.S.A.) was derived from bone marrow stromal cells of a (C57BL/6J x C3H/HeJ) Fl mouse, and support human and murine myelopoiesis in long-term cultures (as per ATCC) and have the ability to differentiate into osteoblastic and adipocytic cells. Unless specified, these cells were cultured in RPMI 1640 containing 10% heat-inactivated FBS, and supplemented with 1 mM sodium pyruvate, 100 U/ml penicillin, and 100 U/ml streptomycin (all from Irvine Scientific).
Cells were always treated at 90% confluence. […]
(A) M2 cells at confluence were pretreated for 4 hours with control vehicle (C) or 10 μM COX-1 inhibitor SC-560 (SC) in osteogenic medium as described earlier. […] After 3 days, ALP activity was measured as described earlier. […] (B) M2 cells were treated as described in (A) and after 10 days matrix mineralization in cultures was quantified by a ^45Ca incorporation assay as described earlier. […] After 8 days, total RNA was isolated and analyzed for osteocalcin (Osc) and […] expression by Northern blotting as previously described. […] After 3 days, ALP activity was measured as previously described. […] After 10 days, matrix mineralization in cultures was quantified using a ^45Ca incorporation assay as previously described. […]
ALP activity was measured after 2 days, as described. […]

CC1=C2C[C@H]3[C@@H](CC=C4C[C@@H](O)CC[C@@]43C)[C@@H]2CC[C@]12O[C@@H]1C[C@H](C)CN[C@H]1[C@H]2C [cyclopamine, reference compound]
effect on SS-induced alkaline phosphatase (ALP) activity: inhibited
